Earlier results in US6649649B1, “Method of treating colonic adenomas” (Merck & Co., Inc., priority 1995, dated 2003).

Tested on: PGHS-1 or PGHS-2

SMILES: CC1=C(CC(=O)O)c2cc(F)ccc2/C1=C\c1ccc([S+](C)[O-])cc1 (stereo not shown) [sulindac]
- selectivity for inhibition of either PGHS-1 or PGHS-2: little selectivity
